Drawing on US10913738B2 (BRISTOL-MYERS SQUIBB COMPANY, priority 2017, dated 2021), this text covers IC50 for one compound.

The pIC50 is the IC50 on a negative log10 scale, so that one unit is a factor of ten.

pIC50: −log10 of the molar value.

The test system of this experiment is MLKL phosphorylation in HT29-L23 human colorectal adenocarcinoma cells. Description: MLKL Phosphorylation High-Content Assay. Type of experiment: cell-based. As to conditions: read-out: pMLKL cell activity >200 nM, x marks IC50 class >200 nM.

On to `COc1ncc(-c2ccn3nc(N)nc3c2)cc1C(=O)NCc1ccc(F)cc1OC1CCOC1` (stereo not shown), for which the pIC50 was under 6.70.
